Laboratory results as given in publication PMC6264418, “t-Bu2SiF-Derivatized D2-Receptor Ligands: The First SiFA-Containing Small Molecule Radiotracers for Target-Specific PET-Imaging” (Molecules, 2011).

Protein sequences, listed by entry. Tags and fused reporters are not part of them.
UniProt P14416, whole entry: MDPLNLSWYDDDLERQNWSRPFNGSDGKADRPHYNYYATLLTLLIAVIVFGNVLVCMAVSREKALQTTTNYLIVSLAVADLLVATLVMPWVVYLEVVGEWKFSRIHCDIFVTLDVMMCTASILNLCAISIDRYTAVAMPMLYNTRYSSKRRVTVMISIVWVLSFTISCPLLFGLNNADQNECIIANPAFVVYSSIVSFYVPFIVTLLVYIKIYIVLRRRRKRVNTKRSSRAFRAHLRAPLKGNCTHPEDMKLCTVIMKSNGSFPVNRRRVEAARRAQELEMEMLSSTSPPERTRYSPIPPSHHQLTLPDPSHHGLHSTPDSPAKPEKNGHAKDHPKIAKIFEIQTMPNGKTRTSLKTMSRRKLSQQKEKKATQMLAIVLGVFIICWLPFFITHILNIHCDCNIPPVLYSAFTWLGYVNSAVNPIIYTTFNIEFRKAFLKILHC

Molecular target: T1, human D2 receptor (Homo sapiens, UniProt P14416)
T1 construct: expressed in transfected cells
Assay: [3H]spiperone binding assay, dopamine D2-receptor affinity (HEK293 cells stably expressing D2 receptors)
Conditions: [3H]spiperone competition, 3 independent experiments, Ki from IC50 by Cheng-Prusoff, read-out: Ki (nM ± SEM)
Method: Source of the dopamine-D2-receptors was cell line HEK293 which expresses the D2 receptors stably. […] All substances were evaluated in 3 independent competition experiments in six concentrations (each in triplicate). The Ki-values were calculated from the IC50-values according to Cheng-Prusoff as described in detail in [23].

**Q.** With `CCN1CCC[C@H]1CNC(=O)c1c(O)c(Cl)cc(Cl)c1OC` [Raclopride, raclopride, reference compound] as the compound, how does the Ki read?
**A.** The Ki was 1.21 ± 0.43 nM.
